The list shows a part of the results, in another mix than the full data. The source made the active and inactive calls. Rule as the data show it: active = potentiation above about 50%; inconclusive = mostly about 30% to 49%; inactive = weaker than that.
Biological target: D(2) dopamine receptor (Homo sapiens) (UniProt P14416)
Assay: Beta-Arrestin HTS for Positive Allosteric Modulators of the Human D2 Dopamine Receptor: Potentiators
Conditions: DiscoveRx D2 beta-arrestin cells, luminescence, 90 min; active compounds read high; 100% = 57 uM dopamine signal
Description: There is great interest in identifying small molecule ligands for G-protein coupled receptors (GPCRs) as nearly 50% of all FDA-approved drugs target these important receptor proteins. […] Amongst the dopamine receptors (DARs), the D2 is arguably one of the most validated drug targets in neurology and psychiatry. For instance, all receptor-based antiparkinsonian drugs primarily work via stimulating the D2 DAR, whereas all FDA-approved antipsychotic agents are antagonists of this receptor. The D2 DAR is also therapeutically targeted in other disorders such as restless legs syndrome, tardive dyskinesia, Tourette's syndrome, and hyperprolactinemia.
To this end, a miniaturized qHTS screen was developed to be screened against the Molecular Libraries Small Molecule Repository (MLSMR). This assay seeks to identify potentiators against the D2 DAR.
NIH Molecular Libraries Probe Production Network [MLPCN] […]
DiscoveRx D2 cells were thawed from frozen stock and seeded at 2,100 cells/ 3 uL/well media (DiscoveRx Plating Reagent 2) with MultiDrop Combi dispenser (Thermo Scientific, Logan, UT) onto white tissue culture treated 1536-well Aurora plates (Brooks Automation, Chelmsford, MA) and allowed to attach overnight at 37 deg C, 5% CO2. […] The plates were incubated at ambient temperature for 1 hour and then the luminescent signal was read on ViewLux plate reader (PerkinElmer, Waltham, MA).

The chains behind the UniProt entries cited, without tags or fusion partners.
UniProt P14416, whole entry: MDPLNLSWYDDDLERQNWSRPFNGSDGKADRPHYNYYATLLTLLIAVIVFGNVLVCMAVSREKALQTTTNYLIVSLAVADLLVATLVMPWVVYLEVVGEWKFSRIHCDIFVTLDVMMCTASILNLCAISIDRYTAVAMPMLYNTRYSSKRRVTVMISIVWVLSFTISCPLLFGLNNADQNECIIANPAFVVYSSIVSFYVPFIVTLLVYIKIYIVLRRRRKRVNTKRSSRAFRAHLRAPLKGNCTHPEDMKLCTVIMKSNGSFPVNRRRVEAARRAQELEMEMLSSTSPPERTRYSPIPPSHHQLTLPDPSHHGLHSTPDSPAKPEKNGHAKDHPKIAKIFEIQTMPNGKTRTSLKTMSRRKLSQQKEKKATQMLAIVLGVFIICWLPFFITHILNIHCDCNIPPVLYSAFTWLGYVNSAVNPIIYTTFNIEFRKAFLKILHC

| SMILES | potentiation |
| --- | --- |
| CCC(=O)N(c1ccccc1)C1(COC)CCN(CCc2cccs2)CC1 | inactive: -29.3% |
| CCC(=O)N(c1ccccc1)C1(COC)CCN(CCn2nnn(CC)c2=O)CC1 | inactive: -7.25% |

From PubChem BioAssay AID624464 (National Center for Advancing Translational Sciences (NCATS), 2012)
